Reference: patent US8575091B1, “Amylin analogues and pharmaceutical compositions thereof” (Novo Nordisk A/S, priority 2012, dated 2013)

Molecular target: T1, human amylin receptor (Homo sapiens, UniProt O60896+P30988)
T1 construct: expressed in transfected cells
T1 sequence (P30988 25-474): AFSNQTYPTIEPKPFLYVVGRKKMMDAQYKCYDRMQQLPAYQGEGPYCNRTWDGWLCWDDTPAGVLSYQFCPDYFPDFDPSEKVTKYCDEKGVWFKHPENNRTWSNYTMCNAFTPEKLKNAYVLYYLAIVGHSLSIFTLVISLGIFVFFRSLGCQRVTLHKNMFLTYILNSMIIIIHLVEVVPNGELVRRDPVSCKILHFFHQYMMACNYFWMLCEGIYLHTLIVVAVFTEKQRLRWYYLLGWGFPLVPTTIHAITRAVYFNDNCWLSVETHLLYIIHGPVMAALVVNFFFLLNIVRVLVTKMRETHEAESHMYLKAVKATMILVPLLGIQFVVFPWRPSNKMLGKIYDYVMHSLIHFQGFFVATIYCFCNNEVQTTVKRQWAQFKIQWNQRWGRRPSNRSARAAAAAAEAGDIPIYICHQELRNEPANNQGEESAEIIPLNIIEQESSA
T1 sequence (O60896 24-148 partner): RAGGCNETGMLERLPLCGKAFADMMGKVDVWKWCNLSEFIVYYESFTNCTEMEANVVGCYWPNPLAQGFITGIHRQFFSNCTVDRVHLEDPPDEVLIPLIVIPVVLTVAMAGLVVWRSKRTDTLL
Test: Assay (V) binding to the human amylin receptor (SPA, 125I-rat amylin)
Details: species not stated

## CC(C)C[C@H](NC(=O)[C@H](CCCCN)NC(=O)CNC(=O)[C@H](CC(C)C)NC(=O)[C@@H](NC(=O)[C@@H]1CSSC[C@H](N)C(=O)N[C@@H](CO)C(=O)N[C@@H](CC(N)=O)C(=O)N[C@@H](CC(C)C)C(=O)N[C@@H](CO)C(=O)N[C@@H]([C@@H](C)O)C(=O)N1)C(C)C)C(=O)N[C@@H](CO)C(=O)N[C@@H](CCC(N)=O)C(=O)N[C@@H](CCC(=O)O)C(=O)N[C@@H](CC(C)C)C(=O)N[C@@H](Cc1c[nH]cn1)C(=O)N[C@@H](CCCCN)C(=O)N[C@@H](CC(C)C)C(=O)N[C@@H](CCC(N)=O)C(=O)N[C@H](C(=O)N[C@@H](Cc1ccc(O)cc1)C(=O)N1CCC[C@H]1C(=O)N[C@@H](CCCNC(=N)N)C(=O)N[C@H](C(=O)N[C@@H](CC(N)=O)C(=O)N[C@H](C(=O)NCC(=O)N[C@@H](CO)C(=O)NCC(=O)N[C@H](C(=O)N1CCC[C@H]1C(N)=O)[C@@H](C)O)[C@@H](C)O)[C@@H](C)O)[C@@H](C)O [salmon calcitonin]
  binding affinities to amylin receptors and calcitonin receptors: comparable binding affinities to amylin receptors and calcitonin receptors
